The chains behind the UniProt entries cited, without tags or fusion partners.
UniProt Q16539, whole entry, looked up: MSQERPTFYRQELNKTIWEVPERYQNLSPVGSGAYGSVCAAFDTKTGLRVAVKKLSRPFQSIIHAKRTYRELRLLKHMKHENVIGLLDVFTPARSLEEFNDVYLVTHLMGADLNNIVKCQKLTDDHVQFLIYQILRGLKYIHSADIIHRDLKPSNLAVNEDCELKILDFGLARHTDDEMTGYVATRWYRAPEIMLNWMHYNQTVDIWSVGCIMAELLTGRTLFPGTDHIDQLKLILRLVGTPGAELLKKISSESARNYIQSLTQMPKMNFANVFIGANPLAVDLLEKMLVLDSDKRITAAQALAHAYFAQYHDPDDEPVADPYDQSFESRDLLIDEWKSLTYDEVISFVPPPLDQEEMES

According to the Kinase Knowledgebase extract (Sharma et al. 2016):

Target: MAPK14 (human) (UniProt Q16539)
Assay: Inhibition of MAPK14 Kinase Activity

- IC50: 0.001 to 0.1 µM
Structure (SMILES): O=c1c(Oc2ccc(F)cc2F)cc2cnc(NC3CCOCC3)nc2n1CCCO
